# Laboratory results published in ChEMBL document CHEMBL5506007, “Structure-based discovery of potent CARM1 inhibitors for colorectal cancer therapy” (Eur J Med Chem, 2024).
# The source made the active and inactive calls. No cut-off for these calls is given here.
# What was measured:
# [1] = Selectivity index, ratio of IC50 for PRMT1 (unknown origin) to IC50 for CARM1 (unknown origin)
# [2] = Selectivity index, ratio of IC50 for PRMT3 (unknown origin) to IC50 for CARM1 (unknown origin)
# [3] = Selectivity index, ratio of IC50 for PRMT6 (unknown origin) to IC50 for CARM1 (unknown origin)
# [4] = Selectivity index, ratio of IC50 for PRMT8 (unknown origin) to IC50 for CARM1 (unknown origin)
# [5] = target: T1, Histone-arginine methyltransferase CARM1 (Homo sapiens) (UniProt Q86X55); assay: Inhibition of CARM1 in human HCT-116 cells assessed as reduction in methylation of asymmetric dimethyl arginine incubated for 48 hrs by Western blot analysis; format: cell-based; settings: dose 0-10 µM
# T1 sequence (whole entry): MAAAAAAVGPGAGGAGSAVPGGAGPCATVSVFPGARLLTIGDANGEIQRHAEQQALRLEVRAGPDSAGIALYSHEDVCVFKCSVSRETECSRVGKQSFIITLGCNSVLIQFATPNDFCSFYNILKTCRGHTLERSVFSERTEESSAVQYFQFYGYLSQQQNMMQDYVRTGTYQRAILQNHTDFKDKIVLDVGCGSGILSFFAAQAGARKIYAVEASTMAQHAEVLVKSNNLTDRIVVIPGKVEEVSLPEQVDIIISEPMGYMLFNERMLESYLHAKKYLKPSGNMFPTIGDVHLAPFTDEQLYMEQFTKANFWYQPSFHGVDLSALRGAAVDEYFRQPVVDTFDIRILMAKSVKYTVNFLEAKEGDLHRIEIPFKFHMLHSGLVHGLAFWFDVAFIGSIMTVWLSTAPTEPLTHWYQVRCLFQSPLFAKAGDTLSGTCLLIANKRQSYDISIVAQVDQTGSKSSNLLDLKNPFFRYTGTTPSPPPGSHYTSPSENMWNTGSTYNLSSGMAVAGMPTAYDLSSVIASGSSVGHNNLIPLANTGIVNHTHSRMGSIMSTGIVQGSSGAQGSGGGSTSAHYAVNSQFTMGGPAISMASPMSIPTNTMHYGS
# [6] = target: T1, Histone-arginine methyltransferase CARM1 (Homo sapiens); assay: Inhibition of CARM1 in human HCT-116 cells assessed as reduction in methylation of asymmetric dimethyl-PABP1 incubated for 48 hrs by Western blot analysis; format: cell-based; settings: dose 0-10 µM
# [7] = system: HCT-116; assay: Antitumor activity against human HCT-116 cells assessed as inhibition of tumor growth at 10 to 25 mg/kg/day, ip administered for 12 days; format: functional, organism-based; settings: dose 10-25 mg/kg/day, time 12.0 day
compound,measurement,setting,value
CCOCC1(COCC)CCC(Oc2ccccc2CN(C)C[C@@H](O)CNC)CC1,Ratio IC50,[1],> 5
same,Ratio IC50,[2],300
same,Ratio IC50,[3],> 3
same,Ratio IC50,[4],> 3
same,inhibition,[5],Dose-Dependent Effect
same,inhibition,[6],Dose-Dependent Effect
same,Activity,[7],Active
